Where only a bound is given, the exact number is not on record here.

For one assay, the system named is SNU-16 cells. The assay is described as follows: Cell proliferation assay on SNU-16, CellTiter Glo (Table 8). It counts as cell-based. Conditions: Homo sapiens, 96 hrs, class symbols, read-out: IC50(nM) value of compounds on SNU-16 cells. The text has this: (§1) Test method: adding the appropriate volume of whole medium and the cells was suspended.
Background: In ATP-based viability assays light output follows the ATP content of the culture.
By IC50 is commonly meant the midpoint of a concentration-inhibition curve. In the case of `C=CC(=O)N1CCC(CCCc2nc3c(-c4c(Cl)c(OC)cc(OC)c4Cl)cc4cnc(NC)nc4n3n2)CC1` [Compound 130, 1-(4-(3-(4-(2,6-dichloro-3,5-dimethoxyphenyl)-8-(methylamino)-[1,2,4]triazolo[1′,5′:1,6]pyrido[2,3-d]pyrimidin-2-yl)propyl)piperidin-1-yl)prop-2-en-1-one], the IC50 is less than 1 nM.

Consider `C=CC(=O)Nc1ccc(CCc2nc3c(-c4c(Cl)c(OC)cc(OC)c4Cl)cc4cnc(NC)nc4n3n2)cc1` [Compound 120, N-(4-(2-(4-(2,6-dichloro-3,5-dimethoxyphenyl)-8-(methylamino)-[1,2,4]triazolo[1′,5′:1,6]pyrido[2,3-d]pyrimidin-2-yl)ethyl)phenyl)acrylamide], for which the IC50 was less than 1 nM.

The subject of the next assay is NCI-H1581 cells. The assay is described as follows: Cell proliferation assay on NCI-H1581 (Table 7). As to conditions: Homo sapiens, NCI-H1581, read-out: IC50(nM) value of compounds on NCI-H1581 cells. The class given is cell-based.
Excerpt: as §1
Regarding `CCN1CCN(c2ccc(Nc3ncc4cc(-c5cc(OC)cc(OC)c5Cl)c5nncn5c4n3)cc2)C(=O)C1` [Compound 18, 6-(2-chloro-3,5-dimethoxyphenyl)-N-(4-(4-ethyl-2-oxopiperazin-1-yl)phenyl)-[1,2,4]triazolo[4′,3′:1,6]pyrido[2,3-d]pyrimidin-2-amine], the IC50 lay within 1 to 10 nM.

Regarding `COc1cc(OC)c(Cl)c(-c2cc3cnc(Nc4ccc(N5C[C@@H](C)N(C)[C@@H](C)C5)cc4)nc3n3cnnc23)c1` [Compound 20, 6-(2-chloro-3,5-dimethoxyphenyl)-N-(4-((3S,5R)-3,4,5-trimethylpiperazin-1-yl)phenyl)-[1,2,4]triazolo[4′,3′:1,6]pyrido[2,3-d]pyrimidin-2-amine], the IC50 is less than 1 nM.

Consider `CCN1CCN(Cc2ccc(Nc3ncc4cc(-c5cc(OC)cc(OC)c5Cl)c5nncn5c4n3)cc2)CC1` [Compound 44, 6-(2-chloro-3,5-dimethoxyphenyl)-N-(4-((4-ethylpiperazin-1-yl)methyl)phenyl)-[1,2,4]triazolo[4′,3′:1,6]pyrido[2,3-d]pyrimidin-2-amine], for which the IC50 was 1 to 10 nM.

For `CCN1CCN(c2ccc(Nc3ncc4cc(-c5cc6[nH]c(C)cc6cc5Cl)c5nncn5c4n3)cc2)CC1` [Compound 71, 6-(5-chloro-2-methyl-1H-indol-6-yl)-N-(4-(4-ethylpiperazin-1-yl)phenyl)-[1,2,4]triazolo[4′,3′:1,6]pyrido[2,3-d]pyrimidin-2-amine], the IC50 was less than 1 nM.

For the molecule `COc1cc(OC)c(Cl)c(-c2cc3cnc(Nc4ccc(N5CCN(CC(F)(F)F)CC5)cc4)nc3n3cnnc23)c1` [Compound 103, 6-(2-chloro-3,5-dimethoxyphenyl)-N-(4-(4-(2,2,2-trifluoroethyl)piperazin-1-yl)phenyl)-[1,2,4]triazolo[4′,3′:1,6]pyrido[2,3-d]pyrimidin-2-amine], the IC50 lay within 1 to 10 nM.

Turning to `C=CC(=O)N1CCN(CCCc2nc3c(-c4cc(OC)cc(OC)c4Cl)cc4cnc(NC)nc4n3n2)CC1` [Compound 115, 1-(4-(3-(4-(2-chloro-3,5-dimethoxyphenyl)-8-(methylamino)-[1,2,4]triazolo[1′,5′:1,6]pyrido[2,3-d]pyrimidin-2-yl)propyl)piperazin-1-yl)prop-2-en-1-one], the IC50 was determined as 0.5 nM.

As for `C=CC(=O)N1CCC(N(C)CCCc2nc3c(-c4c(Cl)c(OC)cc(OC)c4Cl)cc4cnc(NC)nc4n3n2)CC1` [Compound 134, 1-(4-((3-(4-(2,6-dichloro-3,5-dimethoxyphenyl)-8-(methylamino)-[1,2,4]triazolo[1′,5′:1,6]pyrido[2,3-d]pyrimidin-2-yl)propyl)(methyl)amino)piperidin-1-yl)prop-2-en-1-one], the half-inhibitory concentration (IC50) is less than 1 nM.

`COc1cc(OC)c(Cl)c(-c2cc3cnc(Nc4ccc(N5CCC(N(C)C)CC5)cc4OC)nc3n3cnnc23)c1` [Compound 31, 6-(2-chloro-3,5-dimethoxyphenyl)-N-(4-(4-(dimethylamino)piperidin-1-yl)-2-methoxyphenyl)-[1,2,4]triazolo[4′,3′:1,6]pyrido[2,3-d]pyrimidin-2-amine]: the IC50 was in the range of 10 to 100 nM.

Take `COc1cc(OC)c(Cl)c(-c2cc3cnc(Nc4ccc(N[C@H]5CCN(C(=O)N(C)C)C5)cc4)nc3n3cnnc23)c1` [Compound 109, (S)-3-((4-((6-(2-chloro-3,5-dimethoxyphenyl)-[1,2,4]triazolo[4′,3′:1,6]pyrido[2,3-d]pyrimidin-2-yl)amino)phenyl)amino)-N,N-dimethylpyrrolidine-1-carboxamide]: the IC50 was in the range of 1 to 10 nM.

Regarding `C=CC(=O)N1[C@H](C)CN(CCCc2nc3c(-c4c(Cl)c(OC)cc(OC)c4Cl)cc4cnc(NCC(F)F)nc4n3n2)C[C@@H]1C` [Compound 136, 1-((2R,6S)-4-(3-(4-(2,6-dichloro-3,5-dimethoxyphenyl)-8-((2,2-difluoroethyl)amino)-[1,2,4]triazolo[1′,5′:1,6]pyrido[2,3-d]pyrimidin-2-yl)propyl)-2,6-dimethylpiperazin-1-yl)prop-2-en-1-one], the IC50 lay in the range of 1 to 10 nM.

Consider `COc1cc(OC)c(Cl)c(-c2cc3cnc(Nc4ccc(N5CCN(C6CC6)CC5)cc4)nc3n3cnnc23)c1` [Compound 12, 6-(2-chloro-3,5-dimethoxyphenyl)-N-(4-(4-cyclopropylpiperazin-1-yl)phenyl)-[1,2,4]triazolo[4′,3′:1,6]pyrido[2,3-d]pyrimidin-2-amine], for which the IC50 lay in the range of 1 to 10 nM.

As for `C=CC(=O)Nc1ccc(CCc2nc3c(-c4c(Cl)c(OC)cc(OC)c4Cl)cc4cnc(NC)nc4n3n2)cc1` [Compound 120, N-(4-(2-(4-(2,6-dichloro-3,5-dimethoxyphenyl)-8-(methylamino)-[1,2,4]triazolo[1′,5′:1,6]pyrido[2,3-d]pyrimidin-2-yl)ethyl)phenyl)acrylamide], the IC50 was in the range of 1 to 10 nM.

On to `COc1cc(OC)c(Cl)c(-c2cc3cnc(Nc4ccc(N5CCN(C6CC(O)C6)CC5)cc4)nc3n3cnnc23)c1` (stereo not drawn) [Compound 101, 3-(4-(4-((6-(2-chloro-3,5-dimethoxyphenyl)-[1,2,4]triazolo[4′,3′:1,6]pyrido[2,3-d]pyrimidin-2-yl)amino)phenyl)piperazin-1-yl)cyclobutan-1-ol], for which the IC50 was in the range of 1 to 10 nM.

`C=CC(=O)N1CC2(CN(CCCc3nc4c(-c5c(Cl)c(OC)cc(OC)c5Cl)cc5cnc(NC)nc5n4n3)C2)C1` [Compound 125, 1-(6-(3-(4-(2,6-dichloro-3,5-dimethoxyphenyl)-8-(methylamino)-[1,2,4]triazolo[1′,5′:1,6]pyrido[2,3-d]pyrimidin-2-yl)propyl)-2,6-diazaspiro[3.3]heptan-2-yl)prop-2-en-1-one]: the IC50 lay within 1 to 10 nM.

`COc1cc(OC)c(Cl)c(-c2cc3cnc(Nc4ccc(N5CCNCC5)cc4)nc3n3cnnc23)c1` [Compound 48, 6-(2-chloro-3,5-dimethoxyphenyl)-N-(4-(piperazin-1-yl)phenyl)-[1,2,4]triazolo[4′,3′:1,6]pyrido[2,3-d]pyrimidin-2-amine]: the IC50 was in the range of 1 to 10 nM.

On to `C=CC(=O)Nc1ccc(CCc2nnc3c(-c4cc(OC)cc(OC)c4Cl)cc4cnc(NCCN5CCOCC5)nc4n23)cc1` [Compound 97, N-(4-(2-(6-(2-chloro-3,5-dimethoxyphenyl)-2-((2-morpholinoethyl)amino)-[1,2,4]triazolo[4′,3′:1,6]pyrido[2,3-d]pyrimidin-9-yl)ethyl)phenyl)acrylamide], for which the IC50 was 10 to 100 nM.

As for `COc1cc(OC)c(Cl)c(-c2cc3cnc(Nc4ccc(N5CCN(C6CCC6)CC5)cc4)nc3n3cnnc23)c1` [Compound 105, 6-(2-chloro-3,5-dimethoxyphenyl)-N-(4-(4-cyclobutylpiperazin-1-yl)phenyl)-[1,2,4]triazolo[4′,3′:1,6]pyrido[2,3-d]pyrimidin-2-amine], the IC50 is 1 to 10 nM.

On to `C=CC(=O)N1[C@H](C)CN(CCCc2nc3c(-c4c(Cl)c(OC)cc(OC)c4Cl)cc4cnc(NC)nc4n3n2)C[C@@H]1C` [Compound 133, 1-((2R,6S)-4-(3-(4-(2,6-dichloro-3,5-dimethoxyphenyl)-8-(methylamino)-[1,2,4]triazolo[1′,5′:1,6]pyrido[2,3-d]pyrimidin-2-yl)propyl)-2,6-dimethylpiperazin-1-yl)prop-2-en-1-one], for which the IC50 was less than 1 nM.

Consider `COc1cc(OC)c(Cl)c(-c2cc3cnc(Nc4ccc(N5CCOCC5)cc4)nc3n3cnnc23)c1` [Compound 10, 6-(2-chloro-3,5-dimethoxyphenyl)-N-(4-morpholinophenyl)-[1,2,4]triazolo[4′,3′:1,6]pyrido[2,3-d]pyrimidin-2-amine], for which the IC50 lay in the range of 1 to 10 nM.

`COc1cc(OC)c(Cl)c(-c2cc3cnc(Nc4ccc(CN5CCNCC5)cc4)nc3n3cnnc23)c1` [Compound 58, 6-(2-chloro-3,5-dimethoxyphenyl)-N-(4-(piperazin-1-ylmethyl)phenyl)-[1,2,4]triazolo[4′,3′:1,6]pyrido[2,3-d]pyrimidin-2-amine]: the IC50 fell in the range of 10 to 100 nM.

On to `C=CC(=O)N1CCN(CCCc2nc3c(-c4c(Cl)c(OC)cc(OC)c4Cl)cc4cnc(NC)nc4n3n2)CC1` [Compound 122, 1-(4-(3-(4-(2,6-dichloro-3,5-dimethoxyphenyl)-8-(methylamino)-[1,2,4]triazolo[1′,5′:1,6]pyrido[2,3-d]pyrimidin-2-yl)propyl)piperazin-1-yl)prop-2-en-1-one], for which the IC50 is less than 1 nM.

For the molecule `C=CC(=O)N1[C@H](C)CN(CCCc2nc3c(-c4c(Cl)c(OC)cc(OC)c4Cl)cc4cnc(NCC5CC5)nc4n3n2)C[C@@H]1C` [Compound 135, 1-((2R,6S)-4-(3-(8-((cyclopropylmethyl)amino)-4-(2,6-dichloro-3,5-dimethoxyphenyl)-[1,2,4]triazolo[1′,5′:1,6]pyrido[2,3-d]pyrimidin-2-yl)propyl)-2,6-dimethylpiperazin-1-yl)prop-2-en-1-one], the IC50 was in the range of 1 to 10 nM.

Turning to `CCN1CCN(c2ccc(Nc3ncc4cc(-c5cc(OC)cc(OC)c5Cl)c5nncn5c4n3)cc2)CC1=O` [Compound 19, 6-(2-chloro-3,5-dimethoxyphenyl)-N-(4-(4-ethyl-3-oxopiperazin-1-yl)phenyl)-[1,2,4]triazolo[4′,3′:1,6]pyrido[2,3-d]pyrimidin-2-amine], the IC50 is 1 to 10 nM.

On to `COc1cc(OC)cc(-c2cc3cnc(Nc4ccc(N5CCN6CCC[C@@H]6C5)cc4)nc3n3cnnc23)c1` [Compound 39, (R)-6-(3,5-dimethoxyphenyl)-N-(4-(hexahydropyrrolo[1,2-a]pyrazin-2(1H)-yl)phenyl)-[1,2,4]triazolo[4′,3′:1,6]pyrido[2,3-d]pyrimidin-2-amine], for which the IC50 lay within 10 to 100 nM.

Regarding `CCN1CCN(c2ccc(Nc3ncc4cc(-c5cc(OC)cc(OC)c5Cl)c5ncnn5c4n3)cc2)CC1` [Compound 2, 4-(2-chloro-3,5-dimethoxyphenyl)-N-(4-(4-ethylpiperazin-1-yl)phenyl)-[1,2,4]triazolo[1′,5′:1,6]pyrido[2,3-d]pyrimidin-8-amine], the IC50 is less than 1 nM.

For the origin of these results see patent US11365196B2, “FGFR inhibitor and application thereof” (Betta Pharmaceuticals Co., Ltd., priority 2017, dated 2022).
